# Values quoted from earlier work in article PMC2673089 (Journal of pharmaceutical sciences, 2008).
# Tested on: MDCK-MDR1 monolayers
# Conditions: MDCK-MDR1 monolayer characterization; cited from earlier work
smiles,measurement,value
CC(=O)O[C@H]1C(=O)[C@@]2(C)[C@H]([C@H](OC(=O)c3ccccc3)[C@]3(O)C[C@H](OC(=O)[C@H](O)[C@@H](NC(=O)c4ccccc4)c4ccccc4)C(C)=C1C3(C)C)[C@]1(OC(C)=O)CO[C@@H]1C[C@@H]2O [paclitaxel],Efflux ratio of P-gp substrate marker,101
